# Membrane permeability of cyclic peptides

PAMPA measures passive passage through an artificial lipid membrane. P is given in units of 10^-6 cm/s (from log10 values with two decimals); larger means faster passage.

The entry for CC(=O)N1CCC[C@H]1C(=O)N(C)[C@H](CC(C)C)C(=O)N[C@@H]1C(=O)N[C@H](CC(C)C)C(=O)N[C@@H](CC(C)C)C(=O)N[C@H](CC(C)C)C(=O)N[C@@H](C)C(=O)N[C@H](CC(C)C)C(=O)N2CCC[C@H]2C(=O)O[C@@H]1C lists PAMPA 0.15 × 10^-6 cm/s. For CC(=O)N1CCC[C@H]1C(=O)N(C)[C@@H](CC(C)C)C(=O)N[C@@H]1C(=O)N(C)[C@@H](CC(C)C)C(=O)N(C)[C@H](CC(C)C)C(=O)N[C@H](CC(C)C)C(=O)N(C)[C@H](C)C(=O)N[C@H](CC(C)C)C(=O)N2CCC[C@@H]2C(=O)O[C@@H]1C the data give PAMPA 0.29 × 10^-6 cm/s. For CC(=O)N1CCC[C@H]1C(=O)N(C)[C@H](CC(C)C)C(=O)N[C@@H]1C(=O)N[C@H](CC(C)C)C(=O)N(C)[C@@H](CC(C)C)C(=O)N(C)[C@@H](CC(C)C)C(=O)N[C@@H](C)C(=O)N[C@@H](CC(C)C)C(=O)N2CCC[C@@H]2C(=O)O[C@@H]1C the data give PAMPA 5.6 × 10^-6 cm/s. For CC(=O)N1CCC[C@H]1C(=O)N(C)[C@@H](CC(C)C)C(=O)N[C@@H]1C(=O)N[C@@H](CC(C)C)C(=O)N(C)[C@H](CC(C)C)C(=O)N[C@H](CC(C)C)C(=O)N[C@H](C)C(=O)N[C@@H](CC(C)C)C(=O)N2CCC[C@@H]2C(=O)O[C@@H]1C the data give PAMPA 1.3 × 10^-6 cm/s.

The entry for CC(=O)N1CCC[C@@H]1C(=O)N(C)[C@H](CC(C)C)C(=O)N[C@@H]1C(=O)N(C)[C@@H](CC(C)C)C(=O)N[C@@H](CC(C)C)C(=O)N[C@@H](CC(C)C)C(=O)N[C@H](C)C(=O)N[C@H](CC(C)C)C(=O)N2CCC[C@@H]2C(=O)O[C@@H]1C lists PAMPA 0.11 × 10^-6 cm/s. Listed for CC(=O)N1CCC[C@@H]1C(=O)N(C)[C@H](CC(C)C)C(=O)N[C@@H]1C(=O)N(C)[C@@H](CC(C)C)C(=O)N(C)[C@H](CC(C)C)C(=O)N(C)[C@@H](CC(C)C)C(=O)N(C)[C@H](C)C(=O)N[C@@H](CC(C)C)C(=O)N2CCC[C@@H]2C(=O)O[C@@H]1C: PAMPA 2.6 × 10^-6 cm/s. Listed for CC(=O)N1CCC[C@@H]1C(=O)N(C)[C@@H](CC(C)C)C(=O)N[C@@H]1C(=O)N(C)[C@H](CC(C)C)C(=O)N[C@H](CC(C)C)C(=O)N(C)[C@H](CC(C)C)C(=O)N(C)[C@H](C)C(=O)N[C@@H](CC(C)C)C(=O)N2CCC[C@H]2C(=O)O[C@@H]1C: PAMPA 5.5 × 10^-6 cm/s. CC(=O)N1CCC[C@H]1C(=O)N(C)[C@@H](CC(C)C)C(=O)N[C@@H]1C(=O)N[C@H](CC(C)C)C(=O)N[C@@H](CC(C)C)C(=O)N(C)[C@@H](CC(C)C)C(=O)N(C)[C@@H](C)C(=O)N[C@H](CC(C)C)C(=O)N2CCC[C@@H]2C(=O)O[C@@H]1C is reported with PAMPA 0.22 × 10^-6 cm/s.

CC(=O)N[C@@H]1C(=O)N2CCC[C@H]2C(=O)N(C)[C@H](CC(C)C)C(=O)N[C@@H](CC(C)C)C(=O)N[C@@H](CC(C)C)C(=O)N(C)[C@@H](CC(C)C)C(=O)N(C)[C@H](C)C(=O)N[C@@H](CC(C)C)C(=O)N2CCC[C@@H]2C(=O)O[C@@H]1C has PAMPA 0.4 × 10^-6 cm/s. CC(=O)N1CCC[C@@H]1C(=O)N(C)[C@H](CC(C)C)C(=O)N[C@@H]1C(=O)N[C@H](CC(C)C)C(=O)N(C)[C@@H](CC(C)C)C(=O)N[C@H](CC(C)C)C(=O)N(C)[C@H](C)C(=O)N[C@@H](CC(C)C)C(=O)N2CCC[C@@H]2C(=O)O[C@@H]1C has PAMPA 2.5 × 10^-6 cm/s. The entry for CC(=O)N1CCC[C@@H]1C(=O)N(C)[C@@H](CC(C)C)C(=O)N[C@@H]1C(=O)N[C@H](CC(C)C)C(=O)N(C)[C@@H](CC(C)C)C(=O)N(C)[C@@H](CC(C)C)C(=O)N[C@@H](C)C(=O)N[C@@H](CC(C)C)C(=O)N2CCC[C@@H]2C(=O)O[C@@H]1C lists PAMPA 5.5 × 10^-6 cm/s. CC(=O)N1CCC[C@H]1C(=O)N(C)[C@@H](CC(C)C)C(=O)N[C@@H]1C(=O)N[C@H](CC(C)C)C(=O)N(C)[C@@H](CC(C)C)C(=O)N[C@H](CC(C)C)C(=O)N[C@H](C)C(=O)N[C@H](CC(C)C)C(=O)N2CCC[C@H]2C(=O)O[C@@H]1C has PAMPA 1.1 × 10^-6 cm/s.

Listed for CC(=O)N1CCC[C@H]1C(=O)N(C)[C@@H](CC(C)C)C(=O)N[C@@H]1C(=O)N(C)[C@@H](CC(C)C)C(=O)N(C)[C@@H](CC(C)C)C(=O)N[C@H](CC(C)C)C(=O)N(C)[C@H](C)C(=O)N[C@H](CC(C)C)C(=O)N2CCC[C@H]2C(=O)O[C@@H]1C: PAMPA 0.17 × 10^-6 cm/s. The entry for CC(=O)N1CCC[C@@H]1C(=O)N(C)[C@@H](CC(C)C)C(=O)N[C@@H]1C(=O)N(C)[C@H](CC(C)C)C(=O)N(C)[C@H](CC(C)C)C(=O)N[C@@H](CC(C)C)C(=O)N(C)[C@H](C)C(=O)N[C@@H](CC(C)C)C(=O)N2CCC[C@H]2C(=O)O[C@@H]1C lists PAMPA 5.6 × 10^-6 cm/s. The entry for CC(=O)N1CCC[C@H]1C(=O)N(C)[C@@H](CC(C)C)C(=O)N[C@@H]1C(=O)N[C@H](CC(C)C)C(=O)N(C)[C@@H](CC(C)C)C(=O)N[C@@H](CC(C)C)C(=O)N(C)[C@@H](C)C(=O)N[C@@H](CC(C)C)C(=O)N2CCC[C@H]2C(=O)O[C@@H]1C lists PAMPA 1.1 × 10^-6 cm/s. For CC(=O)N1CCC[C@H]1C(=O)N(C)[C@H](CC(C)C)C(=O)N[C@@H]1C(=O)N(C)[C@@H](CC(C)C)C(=O)N(C)[C@H](CC(C)C)C(=O)N(C)[C@H](CC(C)C)C(=O)N(C)[C@@H](C)C(=O)N[C@H](CC(C)C)C(=O)N2CCC[C@@H]2C(=O)O[C@@H]1C the data give PAMPA 3.5 × 10^-6 cm/s.

CC(=O)N1CCC[C@H]1C(=O)N(C)[C@@H](CC(C)C)C(=O)N[C@@H]1C(=O)N[C@H](CC(C)C)C(=O)N[C@@H](CC(C)C)C(=O)N(C)[C@H](CC(C)C)C(=O)N(C)[C@@H](C)C(=O)N[C@@H](CC(C)C)C(=O)N2CCC[C@@H]2C(=O)O[C@@H]1C is reported with PAMPA 5.8 × 10^-6 cm/s. Listed for CC(=O)N1CCC[C@H]1C(=O)N(C)[C@@H](CC(C)C)C(=O)N[C@@H]1C(=O)N[C@H](CC(C)C)C(=O)N(C)[C@H](CC(C)C)C(=O)N(C)[C@H](CC(C)C)C(=O)N(C)[C@@H](C)C(=O)N[C@@H](CC(C)C)C(=O)N2CCC[C@H]2C(=O)O[C@@H]1C: PAMPA 2.5 × 10^-6 cm/s. For CC(=O)N1CCC[C@H]1C(=O)N(C)[C@H](CC(C)C)C(=O)N[C@@H]1C(=O)N(C)[C@H](CC(C)C)C(=O)N[C@H](CC(C)C)C(=O)N[C@@H](CC(C)C)C(=O)N[C@@H](C)C(=O)N[C@@H](CC(C)C)C(=O)N2CCC[C@H]2C(=O)O[C@@H]1C the data give PAMPA 0.32 × 10^-6 cm/s.

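Conditions beyond the assay type are not listed; see the original paper. The list need not hold all peptides of the study. Peptides that the database sets to -10, its floor, are left out.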

Collected by the curators of CycPeptMPDB (Li et al. 2023) from Kelly et al. 2021, doi:10.1021/jacs.0c06115.